Screens: PubChem, National Center for Advancing Translational Sciences (NCATS)
ClpP mod: qHTS Assay for Activators of ClpP; AID 651965, 2013; 340,000 compounds, 1.9% hits; Potency, µM (top dose mostly 57.5 µM); purified B. subtilis ClpP, FRET peptide cleavage, 20 min; ATP-dependent Clp protease proteolytic subunit (Bacillus subtilis (strain 168)), P80244; active = well fitted falling curve with a large enough effect; inconclusive = small, poorly fitted or top-dose-only effect; inactive = no such curve, though single readings can be large or run the other way; note: the source files actives as falling curves though it sought activators and does not explain the sign; nearly all actives have a fitted effect of over 65% in size
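FRET quenching reversal measured ClpP activation: 10 microg/mL B. subtilis ClpP at pH 8 with the FRET-FV decapeptide, read at 430 nm after 320 nm excitation. The 20-min minus 0-min signal was scaled between DMSO/no-enzyme wells and ADEP (5.8 microM final).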
TrxR1 substrate: is turned over as a substrate by rat TrxR1 | O89049 | purified TrxR1 substrate turnover, NADPH consumption readout | Potency, µM (highest dose often 114 µM) | 390,000 compounds, 0.01% hits | AID 588456; note: nearly all actives have a fitted effect of over 50% in size
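Rat TrxR1, dispensed at 90 nM, was prereduced with 400 uM NADPH (final) for 5 min at ~22 deg C, then incubated with compound 15 min before 400 uM selenite. A first-read NADPH fluorescence drop versus no-compound background flagged substrates.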
miR-21 reporter: raises the signal of a miR-21 reporter | HeLa miR-21 FLuc reporter, luciferase, 48 h | Potency, µM (doses to about 38.3 µM) | 340,000 tested, under 10 active | AID 2288; active = well fitted rising curve with a large enough effect; inconclusive = small, poorly fitted or top-dose-only effect; inactive = no such curve, though single readings can be large or run the other way;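 also: miR-21 action dims this reporter so a rising signal means less miR-21 action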
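Compounds were titrated across several concentrations (up to approximately 40 uM) and incubated 48 hours with HeLa miR-21-FLuc reporter cells (miR-21 target sequence downstream of FLuc, endogenous miR-21). Readout was firefly luciferase luminescence after lytic detection reagent.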
rTrxR1 inhibitor: rat TrxR1 inhibition. 390,000 compounds, 1% hits. O89049. Potency, µM (titrated, usually from 114 µM), most hits filed as inhibitors. recombinant rTrxR1, NADPH fluorescence consumption, selenite substrate; note: nearly all actives have a fitted effect of over 65% in size
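Rat TrxR1 (90 nM in the dispensed reagent) was pre-reduced with 400 uM NADPH for 5 min at room temperature, then incubated with compound for 15 min. After 400 uM selenite was added, NADPH fluorescence (Ex 340/Em 450 nm) was followed for 8 min.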
Apoferritin bind: candidate novel general anesthetic via apoferritin binding; P02791; apoferritin/1-aminoanthracene competitive binding, fluorescence; Potency, µM (top dose mostly 77.5 µM), actives largely listed as inhibitors; 350,000 compounds, 0.074% hits; note: nearly all actives have a fitted effect of over 20% in size
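Concentration-response curves derived by four-parameter Hill fitting of normalized fluorescence, where compounds displaced 1-AMA from 10 uM horse apoferritin following a brief 10 min room-temperature incubation; propofol titration acted as positive control.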
Of the large screens only hits and unclear results are named; the others gave an inactive call. Compounds with a hit are over-represented: about 2.5% of the library has one in this group of screens. Unless noted, calls come from the whole dose curve; as a rule, active = well fitted curve in the direction sought with a large enough effect; inconclusive = small, poorly fitted or top-dose-only effect, or another doubt; inactive = no such curve, though single readings can be large; an effect the other way counts as inactive or inconclusive.

Chains of the proteins cited; added tags and fusions are not shown.
ATP-dependent Clp protease proteolytic subunit (Bacillus subtilis (strain 168)), P80244, UniProt P80244, whole entry, looked up: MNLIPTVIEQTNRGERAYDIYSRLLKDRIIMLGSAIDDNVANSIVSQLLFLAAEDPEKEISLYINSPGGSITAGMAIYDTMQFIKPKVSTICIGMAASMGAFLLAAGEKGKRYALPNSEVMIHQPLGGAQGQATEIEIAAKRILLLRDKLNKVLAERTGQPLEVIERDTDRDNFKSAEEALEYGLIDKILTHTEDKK

COCC1CCN(Cc2c(C(=O)N3CCc4ccccc4C3)nc3ccc(Cl)cn23)C1 (stereo not drawn)	rTrxR1 inhibitor 16µM
CCCCn1c(N)c(N(CCOC)C(=O)c2cc3c(s2)CCC(C)C3)c(=O)[nH]c1=O (stereo not drawn)	none (no result: ClpP mod, miR-21 reporter, Apoferritin bind)
CCCn1c(N)c(N(CCOC)C(=O)c2cccc(S(=O)(=O)N3CCCc4ccccc43)c2)c(=O)[nH]c1=O	ClpP mod 32µM (no result: miR-21 reporter, Apoferritin bind)
CCCn1c(N)c(N(CCOC)C(=O)c2cc3c(s2)CCC(CC)C3)c(=O)[nH]c1=O (stereo not drawn)	ClpP mod 13µM (no result: miR-21 reporter, Apoferritin bind)
COc1cccc(C(=O)N(Cc2cccnc2)c2nc3c(OC)ccc(C)c3s2)c1OC	none
COc1ccc(NC(=O)CSc2nnc3ccc(-c4ccccn4)nn23)cc1	ClpP mod 16µM (no result: miR-21 reporter, Apoferritin bind)
COc1ccc(-c2ccnc(SCC(=O)Nc3ccccn3)n2)cc1	ClpP mod 35µM
O=C(CSc1nnc2ccc(-c3ccccn3)nn12)Nc1ccccc1	none (no result: miR-21 reporter, Apoferritin bind)
Cc1nc(SCC(=O)Nc2ccccn2)n[nH]1	none (no result: ClpP mod)
COc1cc2nc(N3CCCCC3)nc(NC3CC3)c2cc1OC	none (no result: miR-21 reporter, Apoferritin bind)
Cc1ccccc1OCCC(=O)OCC(=O)c1c(N)n(CC(C)C)c(=O)n(C)c1=O	ClpP mod 28µM (no result: miR-21 reporter, Apoferritin bind)
Cc1cc(C(C)C)n2c(nc3ccccc32)c1C#N	none (no result: ClpP mod, TrxR1 substrate, rTrxR1 inhibitor)
Cc1nn(-c2ccc(F)cc2)c2c1cc(C#N)c1nc3ccccc3n12	ClpP mod 16µM
Cc1ncc2c(c1OC(=O)c1ccccc1)COC(C)(C)OC2	none
Cc1c(OC(=O)c2ccc([N+](=O)[O-])cc2)c2c(c[n+]1C)COC(C)(C)OC2	rTrxR1 inhibitor 45µM
COc1cc(Cl)cc(/C=C/c2ccc3ccccc3n2)c1OC(C)=O	ClpP mod 25µM
COc1cc(OC)c(OC)cc1/C=C/c1ccc2ccccc2n1	none (no result: miR-21 reporter, Apoferritin bind)
Cc1ccc(S(=O)(=O)/C=C/C#N)cc1	rTrxR1 inhibitor 0.95µM (no result: ClpP mod, miR-21 reporter)
CCc1ccccc1NC(=O)c1noc2c1CC(C(C)(C)C)CC2 (stereo not drawn)	Apoferritin bind inconclusive
Cc1cc(C)nc(S/C=C/C(=O)c2ccccc2F)n1	ClpP mod 35µM, rTrxR1 inhibitor 2µM
Cc1ccc2c(c1)c1ncnc(N3CCN(c4ccccc4)CC3)c1n2C	ClpP mod 32µM
Cc1ccc(SCC(=O)c2c(C)nc3cc(C)ccn23)cc1	none
C/C(=N\OC(=O)c1ccc(C)cc1)c1c(C)nc2cc(C)ccn12	rTrxR1 inhibitor 28µM
Cc1cc(NC(=O)CSc2nc(-c3ccco3)cc(C(F)(F)F)n2)no1	ClpP mod 25µM
Cc1ccccc1Cn1ccc(NC(=O)CCSc2nc(-c3ccco3)cc(C(F)(F)F)n2)n1	ClpP mod 28µM
Cc1ccc(Cn2ccc(NC(=O)CCSc3nc(-c4ccco4)cc(C(F)(F)F)n3)n2)cc1	Apoferritin bind inconclusive
Cc1cc(NC(=O)CCSc2nc(-c3ccco3)cc(C(F)(F)F)n2)no1	none
COc1cc2oc(=O)c(CC(=O)N3CCCCC3)c(C)c2cc1OC	rTrxR1 inhibitor 16µM
CC(C)OP(=O)(OC(C)C)C1(O)C(=O)Nc2ccc(Br)cc21 (stereo not drawn)	rTrxR1 inhibitor 40µM
O=S(=O)(Nc1cc(Sc2ncn[nH]2)c(O)c2ccccc12)c1ccccc1	TrxR1 substrate 25µM, miR-21 reporter inconclusive, rTrxR1 inhibitor 11µM (no result: ClpP mod)
Cc1cc(O)c(Sc2ncn[nH]2)cc1NS(=O)(=O)c1ccc(Cl)cc1	none (no result: miR-21 reporter, Apoferritin bind)
Cc1ccc2nccnc2c1	rTrxR1 inhibitor inconclusive (no result: miR-21 reporter, Apoferritin bind)
COc1ccc(OC)c(CNS(=O)(=O)c2c(C(=O)N3CCCCCC3)c(C)n(C)c2C)c1	none
O=S(=O)(Nc1nc(SCc2ccc(Cl)cc2)n[nH]1)c1ccc(F)cc1	ClpP mod 18µM
O=C(NC(=C(Cl)Cl)S(=O)(=O)c1ccc(Cl)cc1)c1ccccc1	miR-21 reporter inconclusive, rTrxR1 inhibitor 45µM
Cc1ccc(C(=O)NC(=C(Cl)Cl)S(=O)(=O)c2ccc(Cl)cc2)cc1	rTrxR1 inhibitor 32µM, Apoferritin bind inconclusive
COc1cccc(NC(=O)C(OC(=O)/C=C/c2ccc3c(c2)OCO3)c2ccccc2)c1 (stereo not drawn)	ClpP mod 32µM
CC1CN(C(=O)N2CCC(C(=O)N3CCN(c4ccccc4)CC3)CC2)c2cc(Cl)ccc2O1 (stereo not drawn)	none
COC(=O)c1cc2c(ccn2-c2ccc(F)cc2)n1Cc1ccc(C#N)cc1	none
COC(=O)c1cc2c(ccn2-c2ccc(F)cc2)n1Cc1ccc(OC)cc1	ClpP mod 22µM
Cc1cc(C)nc(Sc2ncnc3sc4c(c23)CCC4)n1	ClpP mod 13µM
Cc1cccc(NC(=O)c2ccc(Cn3nc(N4CCN(c5ccccc5)CC4)ccc3=O)o2)c1C	none
Cc1cc(SC#N)cc(C)c1NC(=O)CCl	rTrxR1 inhibitor 50µM
Cc1ccc(CNC(=O)C2c3ccccc3C(=O)N3CCc4ccccc4C23)o1 (stereo not drawn)	rTrxR1 inhibitor 1.8µM
O=C(NCCN1CCN(Cc2ccccc2)CC1)C1c2ccccc2C(=O)N2CCc3ccccc3C12 (stereo not drawn)	none
CN(C(=O)c1cccs1)c1ccccc1C(=O)O	ClpP mod 20µM
COc1ccc(CN(C(=O)c2cccs2)c2ccccc2C(=O)O)cc1	none
COc1ccc(-n2c(=O)c3sc4ccccc4c3n(C)c2=O)cc1	ClpP mod inconclusive
CCOC(=O)CCc1c(C)n(CC)c2cc(-c3ccccc3OC)nn2c1=O	ClpP mod 11µM
CCOC(=O)C1=C(O)/C(=C\c2ccc(CNS(=O)(=O)c3ccc(Br)cc3)o2)N=C1C	rTrxR1 inhibitor 14µM
COC(=O)C1=C(O)/C(=C\c2ccc(CNS(=O)(=O)c3ccccc3)o2)N=C1C	rTrxR1 inhibitor inconclusive
COC(=O)C1=C(O)/C(=C\c2ccc(CNS(=O)(=O)c3ccc(Cl)cc3)o2)N=C1C	rTrxR1 inhibitor 28µM
CCOC(=O)C(=O)NCc1ccc(/C=C2/N=C(C)C(C(=O)OCC)=C2O)o1	rTrxR1 inhibitor inconclusive (no result: ClpP mod)
CCOC(=O)/C=C/C(=O)OCC(=O)Nc1ccc(OC)c(Cl)c1	rTrxR1 inhibitor 16µM
CCCn1c(C)cc(/C=C(\C#N)C(=O)OCC(=O)Nc2ccc(OC)c(Cl)c2)c1C	rTrxR1 inhibitor 79µM
CCOC(=O)/C=C/C(=O)OCC(=O)Nc1c(Cl)cccc1Cl	rTrxR1 inhibitor 50µM (no result: ClpP mod)
CCOC(=O)/C=C/C(=O)OCC(=O)Nc1ccc(Cl)cc1Cl	rTrxR1 inhibitor inconclusive (no result: ClpP mod)
CCOC(=O)/C=C/C(=O)OCC(=O)NCc1ccccc1	rTrxR1 inhibitor 25µM
COc1ccc(NC(=O)COC(=O)/C=C/C(=O)OCC(=O)Nc2ccc(OC)c(Cl)c2)cc1Cl	none
COc1ccc(C2=NC(C)(C)N(CC(=O)Nc3cccc(C)c3)C2=O)cc1	none
